Tested on: Caco-2 cell line
Assay: MTT reduction assay, cytotoxicity in Caco-2 cells
Details: AgNO3 concentrations higher than 4.5 μg/mL, Caco-2, 24 h
Method: Cells were grown in a 5% CO2 atmosphere at 37 °C. For each experiment, the cells were used when reaching 80% of confluence, which represented 3 to 5 days of differentiation. Then, the proliferating Caco-2 cells were treated 24 h after seeding.
The MTT reduction assay was used to determine the cytotoxicity of PEI coated-AgNP of two sizes (4 and 19 nm) in the Caco-2 cell line. […] After the exposure period, the culture medium was replaced with fresh medium containing 0.5 mg/mL MTT and the cells were further incubated for 2 h. The resulting dark purple crystals of formazan were then dissolved in DMSO and the absorbance of the corresponding solution, which was directly proportional to the number of living cells, was measured in an automatic plate reader set at a test wavelength of 570 nm and a reference wavelength of 620 nm.

## O=[N+]([O-])[O-].[Ag+] [AgNO3, Silver nitrate, reference compound]
  Cytotoxic effect: above 50%

From publication PMC8588041, “Protective Role of Flavonoids against Intestinal Pro-Inflammatory Effects of Silver Nanoparticles” (Molecules, 2021)
